The values below are quoted from earlier work in paper PMC2861614.

This data set addresses GFP (Aequorea victoria) [GFP: P42212].

On to GFP (from UniProt P42212), for which the dissociation constant (Kd) is 100 µM.
